{"source": "patent US10117919B2", "about": "“Methods and materials for generating CD8+ T cells having the ability to recognize cancer cells expressing a HER2/neu polypeptide” (Mayo Foundation for Medical Education and Research, priority 2012, dated 2018)", "key": {"[1]": {"test_system": "target cells pulsed with polypeptide", "assay": "IFN-γ ELIspot of polypeptide-generated CD8+ T cell lines against polypeptide-pulsed target cells", "type": "cell-based, human"}, "immunoproteasome": {"test_system": "immunoproteasome", "assay": "In vitro cleavage of HER-2/neu 19-mer by purified immunoproteasome", "type": "biochemical", "set-up": "key: The symbol (+) indicates the polypeptide was produced by the respective enzyme in an in vitro assay; The symbol (-) indicates lack of peptide detection in an in vitro assay in samples containing the respective enzyme", "conditions": "from HER-2/neu 19-mer (364-382)"}, "[2]": {"test_system": "20S proteasome and immunoproteasome", "assay": "Processing of longer HER-2/neu polypeptides (19-mer, 23-mer) treated with the proteasomes", "type": "biochemical", "conditions": "19-mer FAGCKKIFGSLAFLPESFD as substrate"}, "20S proteasome": {"test_system": "20S proteasome", "assay": "In vitro cleavage of HER-2/neu 19-mer by purified 20S proteasome", "type": "biochemical", "set-up": "key: The symbol (+) indicates the polypeptide was produced by the respective enzyme in an in vitro assay; The symbol (-) indicates lack of peptide detection in an in vitro assay in samples containing the respective enzyme", "conditions": "from HER-2/neu 19-mer (364-382)"}}, "data": [{"smiles": "CC[C@H](C)[C@H](NC(=O)[C@@H](N)CCCCN)C(=O)N[C@@H](Cc1ccccc1)C(=O)NCC(=O)N[C@@H](CO)C(=O)N[C@@H](CC(C)C)C(=O)N[C@@H](C)C(=O)N[C@@H](Cc1ccccc1)C(=O)N[C@@H](CC(C)C)C(=O)O", "note": "[reference compound]", "values": [{"measurement": "Recognition of polypeptide-pulsed target cells by T cells generated with the polypeptide", "setting": "[1]", "value": "recognized target cells pulsed with p369-377 polypeptide and target cells pulsed with p373-382"}, {"measurement": "Peptide generated by immunoproteasome", "setting": "immunoproteasome", "value": "-"}, {"measurement": "Processing by purified 20S proteasome and immunoproteasome", "setting": "[2]", "value": "did not reveal processing of this polypeptide"}, {"measurement": "Peptide generated by proteasome", "setting": "20S proteasome", "value": "-"}]}]}
